Earlier results in patent US8673265B2, “Carbonylporphyrins and uses thereof” (Brookhaven Science Associates, LLC, priority 2006, dated 2014).

Tested on: EMT-6 mammary carcinomas
Details: comparison value, same tumor model; cited from earlier work

Substance: copper tetra-phenyl-carboranyl porphyrin [CuTCPH]
- percentage of injected dose in tumor per gram of wet tissue: 6.1 %/g
